Patent US7854753B2, “Photokinetic delivery of biologically active substances using pulsed incoherent light” (Photokinetix, Inc., priority 2002, dated 2010)

Assay: Franz skin diffusion cell permeation (percutaneous absorption) under ambient, natural or pulsed incoherent LED light

SMILES: CSCC[C@H](NC(=O)[C@H](Cc1ccccc1)NC(=O)CNC(=O)CNC(=O)[C@@H](N)Cc1ccc(O)cc1)C(=O)O
- % Permeation (percent increase or decrease vs dark baseline, equation 1) (350 + TiO2, 24 cps vs Dark-TiO2): 9746.67%
- % Permeation (percent increase or decrease vs dark baseline, equation 1) (350 + TiO2, 80 cps vs Dark-TiO2): 60.33%
- Permeation (350 + TiO2, pulse rate 24 cps): 103.39 μg/cm^2/24 hrs
- Permeation (350 + TiO2, pulse rate 80 cps): 32.66 μg/cm^2/24 hrs
- Permeation (350 nm LED, pulse rate 24 cps): 94.84 μg/cm^2/24 hrs
- Permeation (350 nm LED, pulse rate 80 cps): 30.59 μg/cm^2/24 hrs
- % Permeation (percent increase or decrease vs dark baseline, equation 1) (350 nm, 24 cps vs Dark): 175.78%
- % Permeation (percent increase or decrease vs dark baseline, equation 1) (350 nm, 80 cps vs Dark): 40.97%
- % Permeation (percent increase or decrease vs dark baseline, equation 1) (390 + TiO2, 24 cps vs Dark-TiO2): 9721.90%
- % Permeation (percent increase or decrease vs dark baseline, equation 1) (390 + TiO2, 80 cps vs Dark-TiO2): 73.24%
- Permeation (390 + TiO2, pulse rate 24 cps): 103.13 μg/cm^2/24 hrs
- Permeation (390 + TiO2, pulse rate 80 cps): 35.29 μg/cm^2/24 hrs
- Permeation (390 nm LED, pulse rate 24 cps): 68.27 μg/cm^2/24 hrs
- Permeation (390 nm LED, pulse rate 80 cps): 38.24 μg/cm^2/24 hrs
- % Permeation (percent increase or decrease vs dark baseline, equation 1) (390 nm, 24 cps vs Dark): 98.52%
- % Permeation (percent increase or decrease vs dark baseline, equation 1) (390 nm, 80 cps vs Dark): 76.22%
- % Permeation (percent increase or decrease vs dark baseline, equation 1) (405 + TiO2, 24 cps vs Dark-TiO2): 19603.81%
- % Permeation (percent increase or decrease vs dark baseline, equation 1) (405 + TiO2, 80 cps vs Dark-TiO2): −32.84%
- Permeation (405 + TiO2, pulse rate 24 cps): 206.89 μg/cm^2/24 hrs
- Permeation (405 + TiO2, pulse rate 80 cps): 13.68 μg/cm^2/24 hrs
- Permeation (405 nm LED, pulse rate 24 cps): 108.21 μg/cm^2/24 hrs
- Permeation (405 nm LED, pulse rate 80 cps): 26.86 μg/cm^2/24 hrs
- % Permeation (percent increase or decrease vs dark baseline, equation 1) (405 nm, 24 cps vs Dark): 214.66%
- % Permeation (percent increase or decrease vs dark baseline, equation 1) (405 nm, 80 cps vs Dark): 23.78%
- % Permeation (percent increase or decrease vs dark baseline, equation 1) (450 + TiO2, 24 cps vs Dark-TiO2): 14509.52%
- % Permeation (percent increase or decrease vs dark baseline, equation 1) (450 + TiO2, 80 cps vs Dark-TiO2): 41.78%
- Permeation (450 + TiO2, pulse rate 24 cps): 153.40 μg/cm^2/24 hrs
- Permeation (450 + TiO2, pulse rate 80 cps): 28.88 μg/cm^2/24 hrs
- Permeation (450 nm LED, pulse rate 24 cps): 298.91 μg/cm^2/24 hrs
- Permeation (450 nm LED, pulse rate 80 cps): 27.10 μg/cm^2/24 hrs
- % Permeation (percent increase or decrease vs dark baseline, equation 1) (450 nm, 24 cps vs Dark): 769.18%
- % Permeation (percent increase or decrease vs dark baseline, equation 1) (450 nm, 80 cps vs Dark): 24.88%
- Permeation Dark (Dark control, ambient light absent): 31.56 μg/0.64 cm^2/25 hrs
- Permeation (Dark control, 24 cps series): 34.39 μg/cm^2/24 hrs
- Permeation (Dark control, 80 cps series): 21.70 μg/cm^2/24 hrs
- Permeation (Dark-TiO2 control (2% TiO2), 24 cps series): 1.05 μg/cm^2/24 hrs
- Permeation (Dark-TiO2 control (2% TiO2), 80 cps series): 20.37 μg/cm^2/24 hrs
- Permeation (Day (natural daylight, not pulsed), control of the 24 cps series): 4.44 μg/cm^2/24 hrs
- Permeation (Day (natural daylight, not pulsed), control of the 80 cps series): 24.44 μg/cm^2/24 hrs
- % Permeation (percent increase or decrease vs dark baseline, equation 1) (Day vs Dark, 24 cps series): −87.09%
- % Permeation (percent increase or decrease vs dark baseline, equation 1) (Day vs Dark, 80 cps series): 12.63%
- Permeation (Day-TiO2 (natural daylight, 2% TiO2, not pulsed), control of the 24 cps series): 8.40 μg/cm^2/24 hrs
- Permeation (Day-TiO2 (natural daylight, 2% TiO2, not pulsed), control of the 80 cps series): 18.67 μg/cm^2/24 hrs
- % Permeation (percent increase or decrease vs dark baseline, equation 1) (Day-TiO2 vs Dark-TiO2, 24 cps series): 700.00%
- % Permeation (percent increase or decrease vs dark baseline, equation 1) (Day-TiO2 vs Dark-TiO2, 80 cps series): −8.35%
- 405/1.7 (Table 10, 405 nm, 1.7 cps): 35.47
- 405/9.7 (Table 10, 405 nm, 9.7 cps): 27.57
- 405/24 (Table 10, 405 nm, 24 cps): 6.86
- Ctrl (Table 10 peptides, ambient light only): 0.00
- Permeation Ctrl (ambient cool fluorescent light only, 260-750 nm, 120 cps): 0.00 μg/0.64 cm^2/25 hrs
- Permeation Ctrl-TiO2 (ambient fluorescent light, sample with 2% (w/w) rutile TiO2): 0.00 μg/0.64 cm^2/25 hrs
